Measured values reported in PubChem BioAssay AID1022 (Emory University Molecular Libraries Screening Center, 2008).
“And” between values parts separate entries of the source, which are not always exact repeats. Identical values can stand only once. The entries are a selection whose mix differs from that of the whole data set. The source made the active and inactive calls.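 The calls were made as follows: active = compounds that cut the protein-peptide binding signal by more than 50% relative to plate controls in a single-dose test; inactive = the rest.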

Protein sequences, listed by entry. Tags and fused reporters are not part of them.
UniProt Q07820, whole entry, looked up: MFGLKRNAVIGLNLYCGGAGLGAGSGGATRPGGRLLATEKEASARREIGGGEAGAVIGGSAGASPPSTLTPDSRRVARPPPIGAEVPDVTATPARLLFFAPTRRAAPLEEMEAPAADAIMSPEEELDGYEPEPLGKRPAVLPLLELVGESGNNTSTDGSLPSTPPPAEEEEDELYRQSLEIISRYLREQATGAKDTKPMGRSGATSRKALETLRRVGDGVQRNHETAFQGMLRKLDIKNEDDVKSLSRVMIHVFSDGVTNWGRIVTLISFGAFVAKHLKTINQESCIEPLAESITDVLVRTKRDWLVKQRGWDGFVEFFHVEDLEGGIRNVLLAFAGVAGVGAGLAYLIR

target: Induced myeloid leukemia cell differentiation protein Mcl-1 (Homo sapiens) (UniProt Q07820); test: disruptors of Mcl-1 and Noxa BH3 peptide – biochemical, TR-FRET, 1536-well, primary screen (AID 1022); settings: TR-FRET Mcl-1/Noxa peptide binding, 2 h; at 21.7 µM; stronger effect = higher value;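 also: His-tagged Mcl-1 with rhodamine Noxa BH3 peptide and terbium anti-His antibody; 0% = Mcl-1 plus Noxa peptide wells and 100% = peptide-only wells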

Compound | inhibition
O=[N+]([O-])c1ccc2c(c1)nnn2O | inactive: 5.72%
CN(C(=O)Cc1ccccc1)[C@@H]1CC[C@]2(CCCO2)C[C@H]1N1CCCC1 | inactive: -1.49%
CCOP1(=S)c2c(C)nn(CCC#N)c2N=C(c2ccc(F)cc2)N1C (configuration not stated) | inactive: 6.74%
NC(=O)Nc1ccc([As](=O)(O)O)cc1 | inactive: 2.38%
O=C(O)COc1ccc([As](=O)(O)O)cc1[N+](=O)[O-] | inactive: 21%
Nc1ccccc1[As](=O)(O)c1ccccc1 | inactive: -14.6%
CS(=O)(=O)c1cc([N+](=O)[O-])c2no[n+]([O-])c2c1 | active: 61%
CCOP1(=S)c2c(C)nn(CCC#N)c2N=C(c2ccccc2F)N1C (configuration not stated) | inactive: 8.51%
O=P(Nc1nccs1)(Oc1ccccc1)Oc1ccccc1 | inactive: 11%
O=P(Nc1nccs1)(c1ccccc1)c1nc2ccccc2s1 (configuration not stated) | inactive: -1.02%
COc1cc(C2NCCC3(OCCO3)C2(C)C)cc(OC)c1OC (configuration not stated) | inactive: 2.53%
CCOP(=O)(Nc1cccc2ccccc12)OCC | inactive: 3.18%
CCCOP(=S)(Nc1nc(N)cc(=O)[nH]1)OCCC | inactive: -95.4%
Cc1ccc(NCCc2c([N+](=O)[O-])cc([N+](=O)[O-])cc2[N+](=O)[O-])cc1 | inactive: -12.2%
Nc1cccc2c([As](=O)(O)O)cccc12 | inactive: 11.5%
Cc1cccc(OCC(=O)OC2CN3CCC2CC3)c1 (configuration not stated) | inactive: -8.55%
O=[As](O)(c1cccc(O)c1)c1cccc(O)c1 | inactive: 4.59%
O=[As](O)(O)c1cccnc1 | inactive: -6.88%
COc1cc(C(=O)NCC2(N3CCOCC3)CCCCC2)cc(Cl)c1OC(C)C | inactive: -1.53%
O=C(OC1CN2CCC1CC2)c1ccc(Cl)cc1 (configuration not stated) | inactive: -1.55%
O=[As](O)(c1ccccc1Br)c1ccccc1Br | inactive: 3.55%
CC(C)/C=N\N=C(\N)N[N+](=O)[O-] | inactive: 1.48%
Clc1n[nH]nc1-c1nn[nH][15n]1 | inactive: 2.31%

Compound | inhibition
CC(C)(C)C(=O)NC(Sc1ncccn1)C(Cl)(Cl)Cl (configuration not stated) | inactive: 1.36%
CCOP(=O)(Nc1ccc(C)cn1)OCC | inactive: 11.2%
O=P1(Nc2ccccn2)COc2ccccc2OC1 | inactive: -1.92%
Cc1ccc(OCC(=O)OC2CN3CCC2CC3)cc1 (configuration not stated) | inactive: -7.43%
O=[As](O)(c1cccs1)c1cccs1 | inactive: -11.9%
O=P1(Nc2ccc(Br)cn2)COc2ccccc2OC1 | inactive: -1.01%
Nc1cccc([As](=O)(O)c2ccccc2)c1 | inactive: -0.98%
O=P1(Nc2ncccn2)COc2ccccc2OC1 | inactive: 1.44%
O=C(/C=C/c1ccccc1)OC1CN2CCC1CC2 (configuration not stated) | inactive: -0.16%
CN(C)C1(CNC(=O)c2ccc(S(C)(=O)=O)cc2)CCCCC1 | inactive: -21.5%
Cc1nn(-c2ccccc2)c2c1P(=O)(N1CCOCC1)N(C)C(c1ccccc1)=N2 (configuration not stated) | inactive: -5.11%
CC1CCC(C(C)C)C(OP(=O)(Nc2ccccn2)c2ccccc2)C1 (configuration not stated) | inactive: -10.7%
O=[N+]([O-])c1ccc(Nc2ccc(Oc3ccc([N+](=O)[O-])cc3[N+](=O)[O-])cc2)c([N+](=O)[O-])c1 | inactive: -2.38%
Cc1cc(SC(NC=O)C(Cl)(Cl)Cl)ncn1 (configuration not stated) | inactive: 4.4%
O=P(Nc1ccccn1)(c1cccc2ccccc12)c1cccc2ccccc12 | inactive: 10.5%
CCOC(=O)Nc1cccc([As](=O)(O)O)c1 | inactive: 20.3%
Cc1cc(SC(NC(=O)c2ccccc2)C(Cl)(Cl)Cl)nc(C(C)C)n1 (configuration not stated) | inactive: -1.97%
CCOC(=O)Nc1ccc([As](=O)(O)O)c(O)c1 | inactive: 5.95%
CCC(C)N(CC(C)C)C(=S)SC(NC(C)=O)C(Cl)(Cl)Cl (configuration not stated) | inactive: 1.16%
CCOC(=O)c1ccc(NC(=O)C(C)(CCl)SC)cc1 (configuration not stated) | inactive: 14.7%
O=C(COc1ccccc1)OC1CN2CCC1CC2 (configuration not stated) | inactive: 16.7%
COP1(=S)c2c(C)nn(CCC#N)c2N=C(c2ccc(F)cc2)N1C (configuration not stated) | inactive: 3.87%
COc1ccc(N/C(=N/P(=O)(N2CCOCC2)N2CCOCC2)N2CCOCC2)cc1 | inactive: 3.06%

Compound | inhibition
COc1ccc2nc(NP(=O)(c3ccccc3)c3ccccc3)sc2c1 | inactive: 8.06%
COc1cc(I)ccc1[As](=O)(O)O | inactive: -3.02%
O=C(OC1CN2CCC1CC2)C12CC3CC(CC(C3)C1)C2 (configuration not stated) | inactive: 11.7%
Cc1cc(=O)[nH]c(N[N+](=O)[O-])n1 | inactive: -1.14%
Cc1c2c(nc3ccccc13)SC(C(Cl)Cl)C2 (configuration not stated) | inactive: 9.33%
CC(C)NC(=O)NP(=O)(Oc1ccccc1)Oc1ccccc1 | inactive: 6.96%
CCN(CC)C(=S)SC(NC=O)C(Cl)(Cl)Cl (configuration not stated) | inactive: 13.1%
O=[N+]([O-])c1cc([N+](=O)[O-])c(-c2ccn[nH]2)s1 | active: 54.7%
CC(C)c1ccc(OP(=O)(Nc2ccccn2)Oc2ccccc2F)cc1 (configuration not stated) | inactive: 6.4%
ClCCSc1nnc(-c2cccnc2)o1 | inactive: -3.42%
Cc1ccc2nc3c(c(C)c2c1)CC(C(Cl)Cl)S3 (configuration not stated) | inactive: -3.22%
Cc1ccc(OP(=O)(Nc2ccc([N+](=O)[O-])cn2)Oc2ccc(C)cc2)cc1 | inactive: 20.7%
C[As](=O)(O)c1cccc(C(=O)O)c1 | inactive: 7.83%
O=[As](O)(c1ccc(O)cc1)c1ccccc1O | inactive: 7.66%
CCN(N=Nc1nonc1N)c1nonc1N | inactive: 10.5%
Nc1cccc2ccc([As](=O)(O)O)cc12 | inactive: 1.09%
Cc1cc(SC(NC(=O)c2ccc(F)cc2)C(Cl)(Cl)Cl)ncn1 (configuration not stated) | inactive: 23.5%
CCOP(=O)(Nc1ccccc1)OCC | inactive: -3.08% and inactive: -7.14%
Cc1ccc(NP(=O)(Oc2ccccc2F)Oc2ccccc2F)nc1 | inactive: -6.86%
CC(=O)Nc1ccc([As](=O)(O)O)cc1 | inactive: 0.21%
O=C(O)c1ccccc1[As](=O)(O)O | inactive: 6.7%
